Assay results as given in patent US20070184519A1, “Peptides, polypeptides, and proteins of reduced immunogenicity and methods for their production” (priority 2003, published 2007).

What was measured:
MHC class II molecules = experiment: Panel of MHC class II binding assays: number of molecules bound or with reduced binding (degeneracy, cross-reactivity); parameters: species or system human; settings: for xm (1000 nM): number of MHC class II molecules bound at a threshold of 1000 nM or less, 17 molecules in the table
CD4+ T cells = experiment: Primary in vitro immunogenicity of analog peptide combinations and modified EPO proteins (DC-stimulated CD4+ T cells, IFN-γ ELISPOT); assay type: cell-based, human; settings: DC pulsed with culture supernates; 5 donors

| xm (1000 nM) (MHC class II molecules) | Molecule | mean response, proteins (CD4+ T cells) [SFC/5×10^4 effector cells] | positive cultures / cultures tested, proteins (CD4+ T cells) | degenerate binding regions identified in the protein (MHC class II molecules; overlapping 15mer peptides) |
| --- | --- | --- | --- | --- |
| 0 | CC[C@H](C)[C@H](NC(=O)[C@H](CC(N)=O)NC(=O)[C@H](CCC(=O)O)NC(=O)[C@H](CC(N)=O)NC(=O)[C@H](CC(C)C)NC(=O)[C@H](CO)NC(=O)[C@H](CS)NC(=O)[C@H](Cc1c[nH]cn1)NC(=O)[C@H](CCC(=O)O)NC(=O)[C@H](C)NC(=O)[C@H](CS)NC(=O)CNC(=O)[C@@H](NC(=O)[C@@H](N)[C@@H](C)O)[C@@H](C)O)C(=O)N[C@H](C(=O)O)[C@@H](C)O | – | – | – |
| 0 | CC[C@H](C)[C@H](NC(=O)[C@H](CC(N)=O)NC(=O)[C@H](CCC(=O)O)NC(=O)[C@H](C)NC(=O)[C@@H](N)CCC(=O)O)C(=O)N[C@H](C(=O)N[C@H](C(=O)NCC(=O)N[C@@H](CS)C(=O)N[C@@H](C)C(=O)N[C@@H](CCC(=O)O)C(=O)N[C@@H](Cc1c[nH]cn1)C(=O)N[C@@H](CS)C(=O)N[C@@H](CO)C(=O)N[C@@H](CC(C)C)C(=O)O)[C@@H](C)O)[C@@H](C)O | – | – | – |
| – | G4: EPO variant (L102G, T107D, S146D) | 9 | 8/40 | – |
| – | G3: EPO variant (T107D, S146D) | 6 | 9/40 | – |
| – | Calcitonin: 32 amino acid polypeptide derived from salmon origin | – | – | did not contain any degenerate binding regions; also recorded: did not contain any clear degenerate binding peptides |

Entries after “also recorded” stand apart in the source; their conditions may differ.
